{"source": "PubChem BioAssay AID849", "about": "(SRMLSC, 2007)", "system": "Saccharomyces cerevisiae lifespan shortening, growth inhibition", "assay": "Saccharomyces cerevisiae growth inhibition potency – dose response (AID 849);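 note: yeast growth read as optical density after two days at 30 degrees C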", "note": "Calls of active or inactive are those of the source. The rule behind the calls is not given here.", "data": [{"molecule": "O=[N+]([O-])c1cc([N+](=O)[O-])c(-c2ccn[nH]2)s1", "values": [{"measurement": "IC50", "result": "inactive: > 100 µM"}]}]}
